Experimental data taken from patent US10428320B2, “Crystal structure of Staphylococcus aureus Autolysin E, method of producing the crystal and its use in screening methods” (J. Stefan Institute, priority 2015, dated 2019).

Tested on: AtlE
Assay: Ligand binding by soaking of AtlE crystals and X-ray structure determination
Conditions: native crystals soaked with 10 mM solution of the ligands

CC(=O)NC1C(O)OC(CO)C(O)C1OC(C)C(=O)NC(C)C(=O)NC(CCC(=O)O)C(=O)O [MurP, NAM-ALA-D-GLU]
binding to AtlE in crystal complex: binds to AtlE structure equivalently to that observed in the NAG-NAM AtlE complex
